From patent US20020142945A1, “Immunomodulatory methods using carbohydrate antigens” (President and Fellows of Harvard College, priority 1998, published 2002)
Where “and” joins values, the source holds several entries; their conditions need not be identical. Equal entries are not always repeated.

Legend:
[1] = tested on: Ag-specific IgE and IgG; experiment: Antigen-specific serum IgE and IgG by ELISA following immunization; assay type: in vivo, mice
Experimental: (§1) Multivalent LNnT or Lewis^γ were conjugated with HSA (LNnT-HSA and Le^y-HSA) by Accurate Chemical and Scientific Corporation (NY). In both neoglycoproteins, 13 molecules of sugar conjugated to 1 HSA molecule. As controls, HSA (Sigma Chemical Co., Mo.), HSA adsorbed to alum (Intergen Company, NY; HSA-alum), or Dulbecco's PBS (Gibco BRL, NY) were prepared for immunization. Groups of four to six mice were immunized intraperitoneally or subcutaneously with Ags (10 μg of HSA) or saline. First and second boosting immunization were performed in the same fashion 2 and 3 weeks later, respectively. Protein concentration was determined by bicinchoninic acid (BCA) assay (Pierce, Ill.).
Immunized mice were bled from the tail 10, 6, and 5 days following primary, first, and second boosting immunization, respectively. Total and HSA-specific IgE were determined by sandwich ELISA. In brief, ELISA plates (Corning Inc., NY) were coated overnight at 4° C. with 100 μl of 5 μg/ml rat anti-mouse IgE mAb (Biosource, CA) in carbonate-bicarbonate buffer, pH 9.6. After washing four times with PBS containing 0.05% Tween20 (PBS-T), plates were blocked with 200 μl PBS containing 10% FCS and 0.3% Tween20 for 2 hrs at 37° C. After washing as above, 100 μl samples of serially-diluted serum or standard mouse IgEmAb (Pharmingen, Calif.) were added in duplicate wells and incubated for 2 hrs at 37° C. Thereafter, 100 μl biotinylated anti-mouse IgEmAb (0.5 μg/ml, Pharmingen) or biotinylated HSA (1 μg/ml) were added to detect total IgE and HSA-specific IgE, respectively. After 2 hrs incubation at 37° C., plates were washed and 100 μl peroxidase-conjugated streptavidin (Sigma) diluted 1/1000 was added to each well and incubated for 1 hr at 37° C. Finally plates were washed eight times, the reactions were developed by addition of tetramethyl-benzidine substrate (Kirkegaard and Perry Laboratories, Gaithersburg, Md.) and stopped by addition of phosphoric acid (0.4M). The absorbance was measured at 450 nm in UVMax automated plate reader (Molecular Devices Corp., Menlo Park, Calif.). For biotinylation, HSA (2 mg/ml) in sodium bicarbonate buffer pH 8.5 was incubated with biotin (long arm) N-hydroxy succumide ester (Vector Lab., CA) for 2 hrs at room temperature, stopped the reaction by addition of 5 μl ethanolamine, and dialyzed overnight with PBS/0.05% sodium azide.
Ag-specific IgG ELISA were determined. […] Finally the absorbance at 450 nm was measured using a UVMax automatic microplate reader. Results were expressed as endpoint titers where the endpoint was determined as the final serum dilution which yields a higher absorbance than twice of the background absorbance. Optimum dilutions of anti-mouse IgG mAb-horseradish peroxidase-labeled conjugates were determined to be 1/1000. […]

[2] = tested on: splenocytes; experiment: Cytokine production by cultured splenocytes of IP immunized mice (capture ELISA); assay type: in vivo
Experimental: as §1
In flat-bottom 24-well culture plates (Corning), suspensions of 2.5×10^6 cells per ml were cultured with ConA (2 μg/ml) or without restimulation at 37° C. in supplemented RPMI 1640 medium as described above. 24, 72 and 120 hrs later, the cell cultures were then centrifuged, and the culture supernatants were harvested and kept frozen (−80° C.) until assayed. Pelleted cells were resuspended then stained with mAbs coupled to FITC or PE for immunofluorescent staining. IL-2, IL-4, IL-5, IL-10 and IFN-γ levels in supernatants from ConA-stimulated or unstimulated splenocytes were measured by capture ELISA. In brief, Maxisorp microtitre plates (Nunc Laboratories Ltd., Denmark) were coated with 50 μl of capture Ab at 2.0 μg/ml (rat anti-mouse IL-5, IL-10 and IFN-γ from Pharmingen and rat anti-mouse IL-4 from Endogen, Mass.) in Carbonate-bicarbonate buffer by overnight incubation at 4° C. Wells were then washed with PBS-T four times and blocked by addition of 10% FCS in PBS (2 hours, 37° C.). 50 μl of culture supernatants and appropriate recombinant standards were then added to individual well in duplicate. For standard curves, recombinant IL-5 (0 to 5,000 pg/ml), IL-10 (0 to 25,000 pg/ml), IFN-γ (0 to 20,000 pg/ml) (Pharmingen, Calif.) and IL-4 (0 to 1,500 pg/ml) (Endogen, Mass.) were used in duplicate. Following overnight incubation at 4° C., the wells were washed and appropriate 50 μl/well biotinylated detection Ab at 1 μg/ml (rat anti-mouse IL-5, IL-10 or IFN-γ from Pharmingin and rat anti-mouse IL-4 from Endogen) were added. For the detection of bound biotinylated Ab, 50 μl of streptavidin-alkaline phosphatase conjugate ( 1/2000, Pharmingen) was added to each well for 45 minutes, then washed. Level of cytokine in the wells was visualized by addition of p-nitrophenyl phosphate (Sigma) in glycine buffer. Absorbance was measured at 405 nm using a UVMax automatic microplate reader.

[3] = in vitro stimulation ConA, 72 hrs
[4] = in vitro stimulation none, 24 hrs
[5] = in vitro stimulation none, 72 hrs
[6] = in vitro stimulation none, 120 hrs
[7] = splenocytes of IP immunized mice, without restimulation
[8] = vs mice IP immunized with saline or HSA

LNnT-HSA: Multivalent lacto-N-neotetraose conjugated with human serum albumin; 13 molecules of sugar per HSA molecule
IgG or IgE specific for LNnT-HSA ([1]; BALB/C mice IP immunized, compared with the controls): did not produce significant amounts
HSA-specific IgE and IgG in sera ([1]; BALB/C mice immunized IP): not detected
IgE or IgG against HSA ([1]; CBA/J and C57BL/6 mice): did not elicit
specific IgE signal against Gal (β1-4) GlcNAc and Gal (β1-4) Glc ([1]; biotinylated sugars instead of biotinylated HSA in specific IgE ELISA): not detected
amounts of IL-5 and IL-6 vs wild type BALB/C mice ([2]; IL-4 deficient mice, splenocytes without restimulation): significantly lower
IL-5, IL-6, and IFN-γ production by splenocytes ([2]; IL-4 deficient mice, without restimulation): produced
IFN-g [2, 3]: 3,358 ± 471 pg/ml and 5,917 ± 1,132 pg/ml
IL-4 [2, 3]: 234.00 ± 28.15 pg/mL
IL-5 [2, 3]: 671 ± 34 pg/mL
IL-10 [2, 3]: 1,529 ± 361 pg/ml
IL-4 [2, 4]: 63.74 ± 24.11 pg/mL
IL-5 [2, 4]: 178 ± 5 pg/mL
IFN-g [2, 5]: 2,090 ± 891 pg/ml
IL-2 [2, 5]: 2,060 ± 286 pg/ml
IL-4 [2, 5]: 479.07 ± 86.80 pg/mL
IL-5 [2, 5]: 808 ± 93 pg/mL
IL-10 [2, 5]: 1,068 ± 223 pg/ml
IFN-g [2, 6]: 12,220 ± 1,251 pg/ml
IL-2 [2, 6]: 63 ± 1 pg/mL
IL-4 [2, 6]: 1,363.33 ± 259.70 pg/ml
IL-5 [2, 6]: 3,018 ± 604 pg/ml
IL-10 [2, 6]: 7,064 ± 1,381 pg/ml
amounts of IFN-γ compared to the wild type ([2]; spleen cells of IL-4 gene deficient BALB/C mice): same amounts
IL-2 ([2]; splenocytes of IP immunized mice, in vitro stimulation none, 24 hrs): 209 ± 68 pg/mL
IL-2, IL-4, and IL-5 detected in culture supernatants as early as [2, 7]: 24 h
IL-10 and IFN-γ detected as early as [2, 7]: 72 h
IFN-γ production in response to ConA [2, 8]: but not IFN-γ
IL4, IL-5, and IL-10 production in response to ConA [2, 8]: significantly more
